Experimental data: patent US6380248B1, “Metal-thiols as immunomodulating agents” (Winthrop University Hospital, priority 1998, dated 2002)

Tested on: mice
Experiment: Toxicity / lethality to mice

**Q.** Which “molar ratio of greatest toxicity to mice” value (bismuth:thiol molar ratio) does the source give for bismuth:dimercaprol here?
**A.** most toxic to mice at a 1:2 molar ratio

**Q.** And the “less toxic than bismuth or dimercaprol alone” value (given intraperitoneally to mice)?
**A.** 4 to 6 fold
